# Assays:
# By UniProt entry, the sequences of proteins in these tests, tags left out.
# UniProt P08238, whole entry: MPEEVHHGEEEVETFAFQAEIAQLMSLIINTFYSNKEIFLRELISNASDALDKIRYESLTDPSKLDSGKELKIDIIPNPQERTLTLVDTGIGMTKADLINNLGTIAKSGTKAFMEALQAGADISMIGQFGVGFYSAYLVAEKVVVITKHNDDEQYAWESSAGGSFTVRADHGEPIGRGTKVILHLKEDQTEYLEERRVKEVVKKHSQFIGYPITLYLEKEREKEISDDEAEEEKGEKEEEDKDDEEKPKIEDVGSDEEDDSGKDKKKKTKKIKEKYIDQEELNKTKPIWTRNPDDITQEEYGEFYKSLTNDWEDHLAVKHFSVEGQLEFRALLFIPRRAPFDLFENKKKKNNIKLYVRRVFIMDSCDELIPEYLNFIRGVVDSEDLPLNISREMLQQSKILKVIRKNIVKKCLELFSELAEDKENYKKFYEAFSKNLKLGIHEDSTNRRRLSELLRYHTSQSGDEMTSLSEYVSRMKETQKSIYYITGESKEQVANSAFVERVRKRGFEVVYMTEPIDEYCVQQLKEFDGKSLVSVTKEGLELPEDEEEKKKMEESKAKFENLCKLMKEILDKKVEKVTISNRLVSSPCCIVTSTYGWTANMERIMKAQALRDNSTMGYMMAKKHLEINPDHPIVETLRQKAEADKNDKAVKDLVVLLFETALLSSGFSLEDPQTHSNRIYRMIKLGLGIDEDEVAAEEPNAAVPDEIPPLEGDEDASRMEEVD
# Hsp90α/p23 interactions = Hsp90α/p23 interactions (Homo sapiens, UniProt P07900); test: HTS dose response, 293T cells stably expressing Hsp90α/p23 split RL reporters; conditions: read-out: IC50 (Hsp90α/p23); inhibition of bioluminescence signals by 50% vs carrier control; 8 point dose response 0.156-20 μM; 24 h
# Method: (§1) Novel Hsp90 inhibitors using a commercial 30,176 small molecule chemical compound library with unknown targets and molecular mechanisms (FIG. 9B) were also identified. 293T cells stably expressing Hsp90α/p23 or Hsp90β/p23 split RL reporters were treated with each compound at 8.3 μM.
# (§2) Baseline complemented RL activities were determined 90 mins after addition of 20 μl of ENDUREN® (10 μM final concentration) (Promega, Madison, Wis.) using the Analyst GT (Molecular Device, Sunnyvale, Calif.), with an acquisition time of 0.2 sec per well. Cells were incubated with compounds for 24 h prior to re-determination of complemented RL activities, and normalized to the mean RL activities of untreated cells in columns 1-2. Another small molecule chemical library with 30,176 compounds (SPECS, Wakefield, R.I.) was also used in screening modulators of Hsp90(α/β)/p23 inhibitors (at 8.3 μM, one drug per well for initial screening). For dose response/confirmation assay the compounds were tested in duplicate in an 8 point (0.156-20 μM) dose response assay for RL activities for both Hps90(α/β)/p23 interactions. The effect of each compound on cell proliferation at 20 μM was determined using Cell Titer-Blue assay in duplicate wells.
# (§3) IC50 was defined as the concentration of the compound required to inhibit bioluminescence signals by 50%, relative to carrier control treated 293T cells stably expressing Hsp90α/p23 split RL reporters. IC50 was defined as the concentration of the compound required to inhibit bioluminescence signals by 50%, relative to carrier control treated 293T cells stably expressing Hsp90β/p23 split RL reporters. % Inhibition of 293T cells stably expressing Hsp90</p23 split RL reporters by each compound at 20 μM was determined by CELL TITER BLUE ASSAY®.
# Hsp90β/p23 interactions = Hsp90β/p23 interactions (Homo sapiens, UniProt P08238); test: HTS dose response, 293T cells stably expressing Hsp90β/p23 split RL reporters; conditions: read-out: IC50 (Hsp90β/p23); inhibition of bioluminescence signals by 50% vs carrier control; 8 point dose response 0.156-20 μM; 24 h
# Method: as §1, §2, §3
# [1] = test system: 293T cells stably expressing split RL reporters; test: Cell Titer-Blue cell proliferation assay
# Method: Inhibition of cell proliferation at 20 μM was determined by cell-titer blue assays and toxic compounds were eliminated. The IC50 values for inhibition of bioluminescence signals (BLI) in cells stably expressing Hsp90(α/β)/p23 split RL reporters and the inhibition of cell proliferation for the top 19 compounds are shown in Table 1, Example 15, and their structures are shown in FIGS. 1A-1D.
# as §2, §3
# [2] = test system: Hsp90(α/β)/p23 interactions; test: BLI of lead compounds in intact 293T cells with split RL reporters; conditions: 24 h; normalized for cell number and carrier control
# Method: FIG. 4A illustrates a dose-dependent decrease in bioluminescence signals in 293T cells stably expressing Hsp90α/p23 and Hsp90β/p23 split RL reporters treated with compound CP1 at the indicated dose for 24 h (left). Bioluminescence signals were quantified and normalized for cell number and that of carrier control treated cells (right). Results were expressed as mean±S.E.M.
# To determine the effect of lead compounds on disruption of Hsp90(α/β)/p23 interactions in intact cells, 3.5×10^4 293T cells stably transfected with split RL reporters as described in Chan et al., (2008) Cancer Res. 68: 216-226, were plated in each well in the 96-well black wall plate (Costar, Corning, N.Y.) and allowed to attach for 24 h, prior to treatment with different concentrations of the lead compounds for 24 h. The 10 μg/ml of ENDUREN® (in […] of cell culture medium) was added to each well for 1.5 h and RL activities were determined. BLI signals were normalized to that of cell number for each well (determined by Alamar Blue assay (Invitrogen, Carlsbad, Calif.)), prior to normalization to carrier control-treated cells.
# [3] = test system: endogenous Hsp90(α/β)/p23 interactions; test: Co-immunoprecipitation of Hsp90(α/β)/p23; conditions: 5 μM, 24 h, 293T cells
# Method: FIG. 5B is a digital image of a western blot analysis illustrating the effects of compounds CP1, CP9 and CP18 on disruption of Hsp90α/p23 and Hsp90β/p23 as determined by co-immunoprecipitation using antibodies against p23 and probing with Hsp90α- and Hsp90β-specific antibodies. The blot was probed with antibodies against p23 to ensure similar immunoprecipitation efficiency. Cells treated with 2 μM of PU-H71 served as a positive control.
# (§4) Cells treated with PU-H71 (2 μM) served as a positive control. […] PU-H71 decreased levels of Raf-1, pAkt and total Akt, as expected. The disruption of endogenous Hsp90(α/β)/p23 interactions by CP9 and CP18 was also confirmed by co-immunoprecipitation (FIG. 5B).
# (§5) To validate the mechanisms of the lead compounds and their analogues for inhibition of Hsp90(α/β)/p23 interactions, 293T cells stably expressing the Hsp90(α/β)/p23 split reporters were treated with 5 μM of CP1, CP9 and CP18 or carrier control for 24 h. Cells treated with 2 μM of PU-H71 served as a positive control. Western blotting of Hsp70, phosphorylated and total Akt and co-immunoprecipitation of Hsp90(α/β)/p23 interactions was performed as described Inglese et al., (2006) Proc. Nat. Acad. Sci. U.S.A. 103: 11473-11478, incorporated herein by reference in its entirety. The expression of Raf-1 was determined using rabbit polyclonal antibodies against Raf-1 (0.5 μg/ml, Abcam).
# [4] = test system: Hsp90 client proteins (Raf-1, total and phosphorylated Akt); test: Western blotting of Hsp90 client proteins in 293T cells; conditions: 5 μM, 24 h
# Method: FIG. 5A is a digital image of a western blot analysis illustrating the effect of lead compounds on the expression of Hsp90 client proteins. 293T cells stably expressing Hsp90(α/β)/p23 split reporters were treated with carrier control or compounds CP1, CP9, or CP18 (5 μM each) for 24 h. The known Hsp90 inhibitor PU-H71 (2 μM) was used as a positive control. The expression of Hsp90 client proteins (Raf-1, total and phosphorylated Akt) was determined by western blotting. α-Tubulin was used as a loading control.
# as §4
# as §5, with “The expression of Raf-1 was determined using rabbit polyclonal antibodies against Raf-1 (0.5 μg/ml, Abcam).” left out
SMILES,IC50 (Hsp90α/p23 interactions) [nM],IC50 (Hsp90β/p23 interactions) [nM],% Inhibition of Cell Proliferation (20 μM) [1] [%],bioluminescence signals in 293T cells expressing Hsp90α/p23 and Hsp90β/p23 split RL reporters [2],disruption of endogenous Hsp90(α/β)/p23 interactions by co-immunoprecipitation [3],"levels of Hsp90 client proteins (pAkt/total Akt, Raf-1) [4]"
Cc1nc2sccn2c1C(=O)Nc1nc(-c2ccc(Cl)cc2)cs1,800,2400,45,,,
COc1ccc(S(=O)(=O)NCc2ccncc2)c(Cl)c1Cl,2700,6000,32,,,
CC(C)Cc1ccc(C(C)C(=O)Nc2cccnc2)cc1 (stereo not shown),1400,3100,35,,,
COc1ccc(CC(=O)Nc2nc(-c3ccccc3)c(C)s2)cc1OC,70,40,55,dose-dependent decrease,disruption of endogenous Hsp90(α/β)/p23 interactions,
COc1ccc(NC(=O)COc2cncc(C(C)(C)C)c2)cc1OC,1800,2800,43,,,
CN(C)c1ccc(C2C(C#N)=C(N)Oc3[nH]nc(-c4cccc5ccccc45)c32)cc1 (stereo not shown),3900,17500,13,,,
Cn1c(=O)c2[nH]c(Cc3ccc(C(F)(F)F)cc3)nc2n(C)c1=O,1900,2900,45,,,
COc1cc(C)c(S(=O)(=O)NOCc2ccccc2)c(C)c1,1400,2300,10,,,
Cc1nn(C)c(C)c1CN(C)S(=O)(=O)c1ccc2ccccc2c1,300,800,50,,,
Cc1cc(C)cc(NS(=O)(=O)c2ccc(NC(=O)c3ccc(F)cc3)cc2)c1,1200,1600,33,,,
COc1ccc(CC(=O)Nc2sc3c(c2C#N)CCCC3)cc1OC,2300,5700,27,,,
Cc1cc(-c2ccc(NC(=O)c3ccncc3)c(C)c2)ccc1NC(=O)c1ccncc1,1400,1700,46,,,
Cc1cc(C)c(S(=O)(=O)NCCc2ccncc2)c(C)c1,1200,2400,11,,,
Cn1c(=O)c2c(ncn2Cc2ccc(C(C)(C)C)cc2)n(C)c1=O,200,500,44,dose-dependent decrease,,did not significantly decrease
CC1CCN(S(=O)(=O)c2ccc(NC(=O)c3ccc(-c4ccccc4)cc3)cc2)CC1,2100,8100,10,,,
